Source: ChEMBL document CHEMBL1154119, “Rational design, synthesis and characterization of potent, non-peptidic Smac mimics/XIAP inhibitors as proapoptotic agents for cancer therapy” (Bioorg Med Chem, 2009)

Amino acid sequences for entries named in this document (tags omitted).
UniProt P98170, whole entry: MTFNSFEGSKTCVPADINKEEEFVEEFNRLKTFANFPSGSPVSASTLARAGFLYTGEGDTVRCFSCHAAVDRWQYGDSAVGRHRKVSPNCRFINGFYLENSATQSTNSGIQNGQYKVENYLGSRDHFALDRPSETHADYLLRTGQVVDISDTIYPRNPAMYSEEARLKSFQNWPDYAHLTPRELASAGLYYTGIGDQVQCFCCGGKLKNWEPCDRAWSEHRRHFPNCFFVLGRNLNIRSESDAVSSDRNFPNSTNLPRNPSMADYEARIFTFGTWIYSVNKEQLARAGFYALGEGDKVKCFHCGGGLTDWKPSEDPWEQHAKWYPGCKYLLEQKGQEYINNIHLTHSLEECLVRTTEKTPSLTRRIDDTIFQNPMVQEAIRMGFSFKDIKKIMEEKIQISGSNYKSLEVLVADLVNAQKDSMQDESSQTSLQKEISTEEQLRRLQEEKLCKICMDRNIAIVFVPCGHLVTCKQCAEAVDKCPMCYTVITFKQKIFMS

Target: E3 ubiquitin-protein ligase XIAP (Homo sapiens, UniProt P98170)

CC[C@H](N)C(=O)N[C@H]1CCC[C@H]2CC[C@@H](C(=O)NC(c3ccccc3)c3ccccc3)N2C1=O
IC50: 360 nM
